The experiment relates to human acetylcholine receptor M3R subtype. Kind of experiment: GRAB-ACh 1.0 in acute mouse hippocampus brain slices, local perfusion, two-photon imaging. Type of experiment: cell-based, mice. Particulars: GRAB-ACh 1.0 expressing cells in brain slices.

Molecules are shown by their SMILES. Entries after “also recorded” stand apart in the source; their conditions may differ.

For the compound `CN1CCCC1c1cccnc1` (stereo not shown) [nicotine], the “fluorescence response to agonist” value is given as “but not to; also recorded: cannot induce changes in the fluorescence signal”.

These data come from US20200400567A1, “FUSION POLYPEPTIDE” (PEKING UNIVERSITY, priority 2017, published 2020).
